Assays:
Cellulase T. reesei = assay: Cleavage of glucose from resveratrol glucosides by Cellulase T. reesei; type: biochemical
Cellobiase from A. niger = assay: Cleavage of glucose from resveratrol glucosides by Cellobiase; type: biochemical; conditions: 5 - Cellobiase A. niger

Measured: % cleavage in conditions tested

trans-resveratrol-4′-O-β-glucoside
✓ (✓ = >95%): Cellulase T. reesei; 3 - Cellulase T. reesei | Cellulase T. reesei; 3b - Cellulase T. resei | Cellobiase from A. niger

Reference: patent US20160215306A1 (priority 2013, published 2016)
